Source: US20260124309A1, “STAT6 DEGRADERS AND USES THEREOF” (Kymera Therapeutics, Inc., priority 2023, published 2026)

By UniProt entry, the sequences of proteins in these tests, tags left out. Residues count along the entry.
UniProt P42226, whole entry: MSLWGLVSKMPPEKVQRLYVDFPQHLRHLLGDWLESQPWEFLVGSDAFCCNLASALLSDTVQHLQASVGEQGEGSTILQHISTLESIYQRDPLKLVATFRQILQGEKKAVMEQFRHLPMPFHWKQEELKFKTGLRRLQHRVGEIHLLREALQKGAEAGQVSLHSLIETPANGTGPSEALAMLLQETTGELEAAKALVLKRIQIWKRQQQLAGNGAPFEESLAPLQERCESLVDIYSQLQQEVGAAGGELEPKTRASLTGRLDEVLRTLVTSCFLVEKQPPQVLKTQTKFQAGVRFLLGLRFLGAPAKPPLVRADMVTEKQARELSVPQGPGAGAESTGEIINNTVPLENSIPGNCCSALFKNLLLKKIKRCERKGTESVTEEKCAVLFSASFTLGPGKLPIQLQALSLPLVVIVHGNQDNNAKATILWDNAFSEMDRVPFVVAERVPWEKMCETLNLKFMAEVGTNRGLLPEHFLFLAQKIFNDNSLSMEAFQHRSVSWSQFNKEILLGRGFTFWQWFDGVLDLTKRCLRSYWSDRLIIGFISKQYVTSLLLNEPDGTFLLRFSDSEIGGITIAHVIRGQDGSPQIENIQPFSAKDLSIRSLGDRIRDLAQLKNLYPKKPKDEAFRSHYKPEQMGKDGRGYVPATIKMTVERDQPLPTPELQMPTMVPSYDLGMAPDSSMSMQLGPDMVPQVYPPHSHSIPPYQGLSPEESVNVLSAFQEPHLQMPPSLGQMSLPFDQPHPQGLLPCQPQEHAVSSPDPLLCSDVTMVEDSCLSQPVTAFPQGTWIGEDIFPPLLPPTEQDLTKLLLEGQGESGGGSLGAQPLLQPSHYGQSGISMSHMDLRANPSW
UniProt P42226, 123-632 limits assumed: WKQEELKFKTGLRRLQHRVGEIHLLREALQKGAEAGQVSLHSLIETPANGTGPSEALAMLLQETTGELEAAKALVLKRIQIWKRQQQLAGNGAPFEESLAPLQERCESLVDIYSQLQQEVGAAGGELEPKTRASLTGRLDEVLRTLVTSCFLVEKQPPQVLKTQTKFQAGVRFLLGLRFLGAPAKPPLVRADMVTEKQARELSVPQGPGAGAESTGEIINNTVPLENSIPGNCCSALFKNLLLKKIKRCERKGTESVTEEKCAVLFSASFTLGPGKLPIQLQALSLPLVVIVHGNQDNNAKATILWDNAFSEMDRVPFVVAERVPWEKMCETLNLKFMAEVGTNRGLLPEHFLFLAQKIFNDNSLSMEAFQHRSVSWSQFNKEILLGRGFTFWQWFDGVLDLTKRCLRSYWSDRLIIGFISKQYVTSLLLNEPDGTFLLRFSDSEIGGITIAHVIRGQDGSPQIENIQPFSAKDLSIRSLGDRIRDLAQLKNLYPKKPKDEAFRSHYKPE

How the values were obtained:
[1] = target: biotinylated truncated STAT6 (123-632)-avi (Homo sapiens, UniProt P42226); assay: STAT6 HTRF binding assay; conditions: read-out: STAT6 HTRF: Average IC50, 0.15 nM biotinylated truncated STAT6 (123-632)-avi, 20 nM fluorescein-labeled probe
Method: HTRF binding assays were performed using 0.15 nM biotinylated truncated STAT6 (123-632)-avi purified from E. coli, 1× Streptavidin-terbium (CisBio) prepared by mixing SA-Tb in PPI detection buffer (CisBio), 20 nM proprietary fluorescein-labeled probe, and test compounds in assay buffer consisting of 50 mM HEPES-Na pH 7.5, 100 mM NaCl, 1 mM EDTA, 2 mM DTT, 0.1% Tween-20 with a final volume of 20 uL. Compound stocks were dissolved at 10 mM in 100% DMSO and 11 point titration with 3 fold serial dilution was performed in white, opaque 384 well microplates. Reaction plates were incubated at room temperature for 30 minutes. Plates were centrifuged at low rpm for 5 mins, and the ratio of fluorescence intensities were measured at emission wavelengths for fluorescein acceptor (520 nm) and terbium donor (495 nm) on Envision Plate reader. % Inhibition was calculated from the 520/495 ratio generated by using proprietary positive control compound for 100% inhibition and DMSO only reactions for 0% inhibition. Data was processed and dose response curves were generated using GraphPad Prism to determine the concentration required for inhibiting 50% of the HTRF signal (IC50).
The letter codes for IC50 (μM) include: A (<0.1 μM); B (0.1-1 μM); C (>1-10 μM); D (>10-100 μM); E (>100 μM); and F (not tested).

[2] = target: STAT6-HiBiT (Homo sapiens, UniProt P42226); assay: STAT6 HiBiT degradation in A549 (STAT6-HiBiT) cells
Method: Degradation of STAT6 in endogenously tagged STAT6-HiBiT A549 cells was quantitatively measured using the Nano-Glo HiBiT Lytic Detection System (Promega, 3040). A549 (STAT6-HiBiT) cells were seeded in 384-well plates with a density of 1.25k cells per well in 20 μl fresh media. Compounds were then added to the assay plates using the Apricot S3 with a final top concentration of up to 10 uM in a 4-fold dilution series with total of 10 doses. The assay plates were then incubated for 24 hours at 37° C. under 5% CO2. At the assay endpoint, 20 μL of Nano-Glo HiBiT Lytic Reagent was added to each well and agitated on a plate shaker at 300 rpm for 10 minutes at room temperature. Luminescence was read on PHERAStar FSX Instrument (Is integration time). The data was analyzed by GraphPad Prism and the dose dependent STAT6 degradation was fit using the four-parameter inhibitor vs. response nonlinear regression.
The letter codes for DC50 (nM) include: A (<1 nM): B (1-10 nM); C (>10-100 nM); D (>100-1000 nM); E (>1000 nM); and F (not tested). The letter codes for Dmax (%) include: A (>90%); B (>70-90%); C (>50-70%); D (<50%); and E (not tested).

Compound: CN(C)C(=O)c1cc2c(-c3ccc(C4CCN(c5ccc(C6CCC(=O)NC6=O)cc5F)CC4)cc3F)cc(C3=CCCN(C(=O)CCn4ccnn4)C3)c(F)c2[nH]1 (single isomer, unassigned)
- IC50 [1]: < 100 nM
- STAT6 HiBiT degradation Dmax % 24 h [2]: A (A (>90%))
- DC50 ([2]; read-out: STAT6 HiBiT degradation DC50 (nM) 24 h): < 1 nM
